Measurements published in patent EP4847510A1, “TETRACYCLIC COMPOUND, AND PREPARATION METHOD, PHARMACEUTICAL COMPOSITION, AND USE THEREOF” (dated 2026).

Chains of the proteins cited; added tags and fusions are not shown.
UniProt P28223, whole entry: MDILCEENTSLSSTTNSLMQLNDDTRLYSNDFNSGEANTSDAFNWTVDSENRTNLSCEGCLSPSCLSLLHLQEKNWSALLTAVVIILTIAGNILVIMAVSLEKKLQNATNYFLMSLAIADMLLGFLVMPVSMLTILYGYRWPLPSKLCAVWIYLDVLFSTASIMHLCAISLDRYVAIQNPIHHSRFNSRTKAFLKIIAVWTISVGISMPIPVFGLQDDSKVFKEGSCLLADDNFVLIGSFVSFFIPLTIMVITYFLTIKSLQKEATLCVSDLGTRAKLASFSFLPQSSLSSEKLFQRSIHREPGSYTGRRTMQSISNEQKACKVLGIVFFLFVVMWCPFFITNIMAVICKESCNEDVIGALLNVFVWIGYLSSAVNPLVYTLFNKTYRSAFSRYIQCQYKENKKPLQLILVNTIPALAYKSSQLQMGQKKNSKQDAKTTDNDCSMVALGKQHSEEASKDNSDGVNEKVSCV

What was measured:
5HT2A receptor [1] = target: T1, 5HT2A receptor (Homo sapiens, UniProt P28223); assay: Affinity assay for 5-HT2A receptor, radioligand competition with [3H]-ketanserin; conditions: read-out: [3H]Ketanserin Ki; membranes of HEK293 cells stably expressing the 5-HT2A receptor
5HT2A receptor [2] = target: T1, 5HT2A receptor; assay: Downstream beta-arrestin functional activity assay, method 1 (NanoBit); conditions: for β-arrestin Emax%: method 1, highest concentration of 5-HT = 100%; for EC50: read-out: β-arrestin EC50, method 1, HEK293 cells
5HT2A receptor [3] = target: T1, 5HT2A receptor; assay: Downstream calcium flux functional activity assay, method 1 (HEK293 cells stably expressing the receptor); conditions: for Ca^2+ flux Assay Emax%: method 1, highest concentration of 5-HT = 100%; for EC50: read-out: Ca^2+ flux Assay EC50, method 1, HEK293-5HT2AR cells
[4] = Metabolic property test 5.2, plasma pharmacokinetics after intravenous injection and oral gavage
5HT2A receptor [5] = target: T1, 5HT2A receptor; assay: Downstream beta-arrestin functional activity assay, method 2 (NanoBret); conditions: for β-arrestin Emax%: method 2, highest concentration of 5-HT = 100%; for EC50: read-out: β-arrestin EC50, method 2, HEK293 cells
5HT2A receptor [6] = target: T1, 5HT2A receptor; assay: Downstream calcium flux functional activity assay, method 2 (HEK293 cells transiently transfected); conditions: for Ca^2+ flux Assay Emax%: method 2, highest concentration of 5-HT = 100%; for EC50: read-out: Ca^2+ flux Assay EC50, method 2, transiently transfected HEK293 cells

Row | SMILES | Ki (5HT2A receptor [1]) | β-arrestin Emax% (5HT2A receptor [2]) | EC50 (5HT2A receptor [2]) | Ca^2+ flux Assay Emax% (5HT2A receptor [3]) | EC50 (5HT2A receptor [3]) | also measured
1 | CN1CCN2c3c(cccc31)[C@@H]1CN(CCCc3nccc4c3OCC4)CC[C@@H]12 | 50.9 nM | 40.02% | 186 nM | 2.65% | > 100000 nM | 
2 | CN1CCN2c3c(cccc31)[C@@H]1CN(CCCc3cccs3)CC[C@@H]12 | 110 nM |  |  | 10.40% | > 100000 nM | 
3 | COc1cccnc1CCCN1CC[C@H]2[C@@H](C1)c1cccc3c1N2CCN3C | 60.7 nM | 16.34% | 64.5 nM | -0.07% | > 100000 nM | 
4 | c1cc(CCCN2CCC3C(C2)c2cccc4c2N3CCC4)c2c(c1)CCO2 (stereo not shown) | 6.11 nM | 39.41% | 30.9 nM | 0.81% | > 100000 nM | 
5 | CN1CCN2c3c(cccc31)[C@@H]1CN(CCc3coc4ccccc34)CC[C@@H]12 | 56.8 nM | 23.62% | 83.3 nM | 1.31% | > 100000 nM | 
6 | CN1CCN2c3c(cccc31)[C@@H]1CN(CCC(O)c3ccccc3)CC[C@@H]12 (stereo partly shown) | 416 nM |  |  |  |  | 
7 | CN1CCN2c3c(cccc31)[C@@H]1CN(CCCC(=O)c3ccc(F)cc3)CC[C@@H]12 |  |  |  |  |  | F ([4]; P.O 10 mg/kg vs i.v 2 mg/kg, F(%) = (AUC0-inf-PO/AUC0-inf-IV)/(DosePO/DoseIV) × 100): 2.3%; AUC 0-inf ([4]; P.O 10 mg/kg, mouse plasma): 54 ng·h/mL; t1/2 ([4]; P.O 10 mg/kg, mouse plasma): 2.4 h; AUC 0-inf ([4]; i.v 2 mg/kg, mouse plasma): 463 ng·h/mL; C1 ([4]; i.v 2 mg/kg, mouse plasma): 72 mL/min/kg; Vd ([4]; i.v 2 mg/kg, mouse plasma): 11.2 L/kg; t1/2 ([4]; i.v 2 mg/kg, mouse plasma): 1.98 h
8 | COc1ccccc1OCCN1CC[C@H]2[C@@H](C1)c1cccc3c1N2CCN3C | 239 nM | 64.34% | 444 nM | -0.44% | > 100000 nM | 
9 | COc1sccc1CCCN1CC[C@H]2[C@@H](C1)c1cccc3c1N2CCN3C | 14.4 nM | 13.87% | 47.2 nM | 4.07% | > 100000 nM | 
10 | COc1ncccc1CCCN1CC[C@H]2[C@@H](C1)c1cccc3c1N2CCN3C | 85.4 nM |  |  | 3.72% | > 100000 nM | 
11 | CN1CCN2c3c(cccc31)[C@@H]1CN(CCCc3cccc4c3NCC4)CC[C@@H]12 | 2.99 nM |  |  | 6.06% | > 100000 nM | 
12 | O=C1CN2c3c(cccc3[C@@H]3CN(CCCc4cccc5c4OCC5)CC[C@@H]32)N1 | 14.9 nM |  |  |  |  | β-arrestin Emax% (5HT2A receptor [5]): 30.2%; EC50 (5HT2A receptor [5]): 163 nM; Ca^2+ flux Assay Emax% (5HT2A receptor [6]): 1.12%; EC50 (5HT2A receptor [6]): > 100000 nM
13 | CN1CCN2c3c(cccc31)[C@@H]1CN(CCCc3cccc4c3OC(F)(F)O4)CC[C@@H]12 | 31.1 nM | 49.91% | 32.2 nM | 69.50% | 6140 nM | 
14 | CN1CCN2c3c(cccc31)[C@@H]1CN(CCc3nc4ccccc4o3)CC[C@@H]12 |  | 46.87% | 717 nM | 0.88% | > 100000 nM | 
15 | CN1CCN2c3c(cccc31)[C@@H]1CN(CCCc3cccc4c3CCO4)CC[C@@H]12 | 4.21 nM |  |  | 0.40% | > 100000 nM | 
16 | c1cc(CCCN2CCC3C(C2)c2cccc4c2N3CCO4)c2c(c1)CCO2 (stereo not shown) | 8 nM | 25.65% | 101 nM |  |  | 
17 | CN1CCN2c3c(cccc31)[C@@H]1CN(CCCc3ccccc3C#N)CC[C@@H]12 | 37.4 nM |  |  | 5.10% | > 100000 nM | 
18 | COc1ccncc1CCCN1CC[C@H]2[C@@H](C1)c1cccc3c1N2CCN3C |  | 20.54% | 1270 nM | 1.24% | > 100000 nM | 
19 | CN1CCN2c3c(cccc31)[C@@H]1CN(CCc3c[nH]c4ccccc34)CC[C@@H]12 | 170 nM |  |  | 9.60% | > 100000 nM | 
20 | CN1CCN2c3c(cccc31)[C@@H]1CN(CCCN3CCCCC3)CC[C@@H]12 | 358 nM |  |  |  |  | 
21 | COc1ccccc1C(=O)CCN1CC[C@H]2[C@@H](C1)c1cccc3c1N2CCN3C | 194 nM | 118.20% | 79.4 nM |  |  | 
22 | CN1CCN2c3c(cccc31)[C@@H]1CN(CCCc3ccccc3N)CC[C@@H]12 | 7.04 nM |  |  | 5.13% | > 100000 nM | 
23 | CN1CCN2c3c(cccc31)[C@@H]1CN(CCCc3cccc4c3OCC4)CC[C@@H]12 | 13.4 nM | 28.99% | 20.3 nM | 0.75% | > 100000 nM | 
24 | c1cc(CCCN2CCC3C(C2)c2cccc4c2N3CCS4)c2c(c1)CCO2 (stereo not shown) | 3.58 nM |  |  |  |  | β-arrestin Emax% (5HT2A receptor [5]): 130.9%; EC50 (5HT2A receptor [5]): 139 nM; Ca^2+ flux Assay Emax% (5HT2A receptor [6]): 74.77%; EC50 (5HT2A receptor [6]): 4420 nM

Row | SMILES | Ki (5HT2A receptor [1]) | β-arrestin Emax% (5HT2A receptor [2]) | EC50 (5HT2A receptor [2]) | Ca^2+ flux Assay Emax% (5HT2A receptor [3]) | EC50 (5HT2A receptor [3]) | also measured
25 | CN1CCN2c3c(cccc31)[C@@H]1CN(CCCc3ccccc3N3CCOCC3)CC[C@@H]12 | 247 nM |  |  | 6.29% | > 100000 nM | 
26 | CN1CCN2c3c(cccc31)[C@@H]1CN(CCCc3cccc4c3OCCC4)CC[C@@H]12 | 225 nM | 44.38% | 15.6 nM | 25.06% | > 100000 nM | 
27 | CN1CCN2c3c(cccc31)[C@@H]1CN(CCCc3ccccc3OCC(C)(C)O)CC[C@@H]12 | 359 nM |  |  | 6.52% | > 100000 nM | 
28 | CN1CCN2c3c(cccc31)[C@@H]1CN(CCCc3cccc4cc[nH]c34)CC[C@@H]12 | 2.43 nM |  |  | 21.06% | 46000 nM | 
29 | CN1CCN2c3c(cccc31)[C@@H]1CN(CCCc3cccc4ncoc34)CC[C@@H]12 | 12.5 nM |  |  | -0.04% | > 100000 nM | 
30 | CN1CCN2c3c(cccc31)[C@@H]1CN(C/C=C/c3cccc4ccoc34)CC[C@@H]12 | 22.4 nM |  |  | 43.89% | 41800 nM | 
31 | CN1CCN2c3c(cccc31)[C@@H]1CN(CCCc3ccccc3S(C)(=O)=O)CC[C@@H]12 | 288 nM | 35.01% | 144 nM | 2.19% | > 100000 nM | 
32 | CN1CCN2c3c(cccc31)[C@@H]1CN(CCCc3ccccc3OCCO)CC[C@@H]12 | 308 nM |  |  |  |  | 
33 | CN1CCN2c3c(cccc31)[C@@H]1CN(CCCc3nccc4c3CCO4)CC[C@@H]12 | 127 nM |  |  | 1.44% | > 100000 nM | 
34 | CN1CCN2c3c(cccc31)[C@@H]1CN(CCCc3ccccn3)CC[C@@H]12 | 205 nM | 37.21% | 29.1 nM | 31.89% | > 100000 nM | 
35 | c1cc(CCCN2CC[C@H]3[C@@H](C2)c2cccc4c2N3CCN4C2COC2)c2c(c1)CCO2 | 3.28 nM |  |  |  |  | β-arrestin Emax% (5HT2A receptor [5]): 56.2%; EC50 (5HT2A receptor [5]): 95.4 nM; Ca^2+ flux Assay Emax% (5HT2A receptor [6]): 4.91%; EC50 (5HT2A receptor [6]): > 100000 nM
36 | CN1CCN2c3c(cccc31)[C@@H]1CN(CCC(=O)c3ccncc3)CC[C@@H]12 |  | 86.37% | 282 nM |  |  | 
37 | CN1CCN2c3c(cccc31)[C@@H]1CN(CCc3noc4ccccc34)CC[C@@H]12 | 99.3 nM | 54.17% | 438 nM | 33.47% | 5110 nM | 
38 | CSc1ccccc1CCCN1CC[C@H]2[C@@H](C1)c1cccc3c1N2CCN3C | 50.6 nM |  |  | 7.01% | > 100000 nM | 
39 | CN1CCN2c3c(cccc31)[C@@H]1CN(CCCc3cccc4c3NCCC4)CC[C@@H]12 | 42.3 nM |  |  | 5.58% | > 100000 nM | 
40 | CC(=O)c1ccccc1CCCN1CC[C@H]2[C@@H](C1)c1cccc3c1N2CCN3C | 77.3 nM |  |  |  |  | 
41 | CN1CCN2c3c(cccc31)[C@@H]1CN(CC(F)Cc3cccc4c3OCC4)CC[C@@H]12 (stereo partly shown) | 6.07 nM |  |  |  |  | β-arrestin Emax% (5HT2A receptor [5]): 59.0%; EC50 (5HT2A receptor [5]): 236 nM; Ca^2+ flux Assay Emax% (5HT2A receptor [6]): 8.64%; EC50 (5HT2A receptor [6]): > 100000 nM
42 | CN1CCN2c3c(cccc31)[C@@H]1CN(CCCc3ccccc3OCC(F)(F)F)CC[C@@H]12 | 37.9 nM |  |  | 1.15% | > 100000 nM | 
43 | CN1C(=O)CN2c3c(cccc31)[C@@H]1CN(CCOc3nccc4c3OCC4)CC[C@@H]12 |  |  |  |  |  | β-arrestin Emax% (5HT2A receptor [5]): 36.3%; EC50 (5HT2A receptor [5]): 469 nM; Ca^2+ flux Assay Emax% (5HT2A receptor [6]): 38.41%; EC50 (5HT2A receptor [6]): 159 nM
44 | CN1CCN2c3c(cccc31)[C@@H]1CN(CCCc3ccccc3OC(F)F)CC[C@@H]12 | 29.9 nM | 23.62% | 35.9 nM | 6.42% | > 100000 nM | 
45 | CC(CCc1cccc2c1OCC2)N1CC[C@H]2[C@@H](C1)c1cccc3c1N2CC(=O)N3 (stereo partly shown) |  |  |  |  |  | β-arrestin Emax% (5HT2A receptor [5]): 70.8%; EC50 (5HT2A receptor [5]): 362 nM; Ca^2+ flux Assay Emax% (5HT2A receptor [6]): 73.85%; EC50 (5HT2A receptor [6]): 230 nM
46 | CN1CCN2c3c(cccc31)[C@@H]1CN(CCC3COc4ccccc43)CC[C@@H]12 (stereo partly shown) | 72 nM |  |  | 5.58% | > 100000 nM | 
47 | CN1CCN2c3c(cccc31)[C@@H]1CN(CCC(F)c3cccc4c3OCC4)CC[C@@H]12 (stereo partly shown) | 176 nM | 49.46% | 170 nM |  |  | 
48 | COc1ccccc1NCCN1CC[C@H]2[C@@H](C1)c1cccc3c1N2CCN3C | 353 nM |  |  |  |  | 
